These results are taken from patent US12240855B2, “Pyrrolopyrazole derivative” (DAIICHI SANKYO COMPANY, LIMITED, priority 2019, dated 2025).

One assay has as its system HCT116 cells. Kind of assay: cells. Conditions: Homo sapiens, HCT-116, 72 h, read-out: Test Example 3 HCT116 GI50.
Assay [1] has as its system PTDSS2 gene-disrupted (PTDSS2-KO) HCT116 cells. Briefly: cells. As to conditions: Homo sapiens, HCT-116, 72 h, read-out: Test Example 3 PTDSS2-KO HCT116 GI50.

One may read the GI50 as the concentration at which growth is held to half of that of the control.

As for `CC(F)(F)CN1C(=O)c2[nH]nc(-c3cccc4[nH]c(=O)oc34)c2C1c1ccc(Oc2ccc(SC(F)(F)F)cc2)cc1` (single isomer, unassigned) [Example 47, 7-[5(2,2-Difluoropropyl)-6-oxo-4-(4-{4-[(trifluoromethyl)sulfanyl]phenoxy}phenyl)-1,4,5,6-tetrahydropyrrolo[3,4-c]pyrazol-3-yl]-1,3-benzoxazol-2(3H)-one (enantiomer)], the 50% growth inhibitory concentration (GI50) with HCT116 cells came to 7500 nM; in assay [1], 40 nM.

`Cc1cc(C2c3c(-c4cccc5[nH]c(=O)oc45)n[nH]c3C(=O)N2CC(C)(F)F)c(F)cc1Oc1cc(C(F)(F)F)cc(C(F)(F)F)c1` (single isomer, unassigned) [Example 62, 7-[4-{4-[3,5-Bis(trifluoromethyl)phenoxy]-2-fluoro-5-methylphenyl}-5-(2,2-difluoropropyl)-6-oxo-1,4,5,6-tetrahydropyrrolo[3,4-c]pyrazol-3-yl]-1,3-benzoxazol-2(3H)-one (enantiomer)]: the concentration for 50% growth inhibition (GI50) was determined as 11000 nM in the assay on HCT116 cells and 14 nM in assay [1].

Consider `CC(F)(F)CN1C(=O)c2[nH]nc(-c3cc(F)cc4[nH]c(=O)oc34)c2C1c1cccc(Oc2ccc(F)cc2)c1` (single isomer, unassigned) [Example 56, 7-{5-(2,2-Difluoropropyl)-4-[3-(4-fluorophenoxy)phenyl]-6-oxo-1,4,5,6-tetrahydropyrrolo[3,4-c]pyrazol-3-yl}-5-fluoro-1,3-benzoxazol-2(3H)-one (enantiomer)], for which the 50% growth inhibitory concentration (GI50) came out at 21000 nM in the assay on HCT116 cells and 52 nM in assay [1].

In the case of `CC(F)(F)CN1C(=O)c2[nH]nc(-c3cccc4[nH]c(=O)oc34)c2C1c1ccc(Cl)c(C2CC2)c1` (single isomer, unassigned) [Example 19, 7-[4-(4-Chloro-3-cyclopropylphenyl)-5-(2,2-difluoropropyl)-6-oxo-1,4,5,6-tetrahydropyrrolo[3,4-c]pyrazol-3-yl]-1,3-benzoxazol-2(3H)-one (enantiomer)], the GI50 with HCT116 cells turned out to be 11000 nM; in assay [1], 62 nM.

In the case of `CC(F)(F)CN1C(=O)c2[nH]nc(-c3cccc4[nH]c(=O)oc34)c2C1c1ccc(Oc2cc(Cl)c(OC(F)(F)F)c(Cl)c2)cc1` (single isomer, unassigned) [Example 48, 7-[4-{4-[3,5-Dichloro-4-(trifluoromethoxy)phenoxy]phenyl}-5-(2,2-difluoropropyl)-6-oxo-1,4,5,6-tetrahydropyrrolo[3,4-c]pyrazol-3-yl]-1,3-benzoxazol-2(3H)-one (enantiomer)], the GI50 in the assay on HCT116 cells amounted to 7800 nM; in assay [1] it was 17 nM.

For `CC(F)(F)CN1C(=O)c2[nH]nc(-c3cccc4[nH]c(=O)oc34)c2C1c1ccc(Oc2ccc(Cl)c(Cl)c2)cc1` (single isomer, unassigned) [Example 59, 7-[4-[4-(3,4-Dichlorophenoxy)phenyl]-5-(2,2-difluoropropyl)-6-oxo-1,4,5,6-tetrahydropyrrolo[3,4-c]pyrazol-3-yl]-1,3-benzoxazol-2(3H)-one (enantiomer)], the figures for the concentration for 50% growth inhibition (GI50) (in the assay with HCT116 cells; in assay [1]) were 8200 nM and 26 nM, respectively.

In the case of `CC(F)(F)CN1C(=O)c2[nH]nc(-c3cccc4[nH]c(=O)oc34)c2C1c1ccc(OCc2cc(C(F)(F)F)cc(C(F)(F)F)c2)cc1` (single isomer, unassigned) [Example 82, 7-[4-(4-{[3,5-Bis(trifluoromethyl)benzyl]oxy}phenyl)-5-(2,2-difluoropropyl)-6-oxo-1,4,5,6-tetrahydropyrrolo[3,4-c]pyrazol-3-yl]-1,3-benzoxazol-2(3H)-one (enantiomer)], the GI50 with HCT116 cells stood at 12000 nM; in assay [1], 22 nM.

For the compound `CC(F)(F)CN1C(=O)c2[nH]nc(-c3cccc4[nH]c(=O)oc34)c2C1c1ccc(Oc2ccc(Cl)cc2)cc1` (single isomer, unassigned; (-)) [Example 57, (−)-7-{4-[4-(4-Chlorophenoxy)phenyl]-5-(2,2-difluoropropyl)-6-oxo-1,4,5,6-tetrahydropyrrolo[3,4-c]pyrazol-3-yl}-1,3-benzoxazol-2(3H)-one], the results for the GI50 (in the assay on HCT116 cells; in assay [1]) were 8400 nM and 55 nM, respectively.

Consider `CC(F)(F)CN1C(=O)c2[nH]nc(-c3cccc4[nH]c(=O)oc34)c2C1c1ccc(Oc2ccc(C(F)(F)F)cc2)cc1` (single isomer, unassigned) [Example 46, 7-[5-(2,2-Difluoropropyl)-6-oxo-4-{4-[4-(trifluoromethyl)phenoxy]phenyl}-1,4,5,6-tetrahydropyrrolo[3,4-c]pyrazol-3-yl]-1,3-benzoxazol-2(3H)-one (enantiomer)], for which the GI50 was 8000 nM with HCT116 cells and 40 nM in assay [1].

As to `Cc1cc(Oc2ccc(C3c4c(-c5cccc6[nH]c(=O)oc56)n[nH]c4C(=O)N3CC(C)(F)F)cc2)ccc1OC(F)(F)F` (single isomer, unassigned; (-)) [Example 32, (−)-7-[5-(2,2-difluoropropyl)-4-{4-[3-methyl-4-(trifluoromethoxy)phenoxy]phenyl}-6-oxo-1,4,5,6-tetrahydropyrrolo[3,4-c]pyrazol-3-yl]-1,3-benzoxazol-2(3H)-one], the concentration for 50% growth inhibition (GI50) in the assay with HCT116 cells came out at 8300 nM; in assay [1] it was 19 nM.

`CC(F)(F)CN1C(=O)c2[nH]nc(-c3cccc4[nH]c(=O)oc34)c2C1c1ccc(Cl)cc1` (single isomer, unassigned) [Example 20, 7-[4-(4-Chlorophenyl)-5-(2,2-difluoropropyl)-6-oxo-1,4,5,6-tetrahydropyrrolo[3,4-c]pyrazol-3-yl]-1,3-benzoxazol-2(3H)-one (enantiomer)]: the GI50 in the assay on HCT116 cells was 17000 nM; in assay [1], 230 nM.

Turning to `CC(F)(F)CN1C(=O)c2[nH]nc(-c3cccc4[nH]c(=O)oc34)c2C1c1ccc(Oc2ccc(Cl)cc2)c(Cl)c1` (single isomer, unassigned) [Example 60, 7-{4-[3-Chloro-4-(4-chlorophenoxy)phenyl]-5-(2,2-difluoropropyl)-6-oxo-1,4,5,6-tetrahydropyrrolo[3,4-c]pyrazol-3-yl}-1,3-benzoxazol-2-(3H)-one (enantiomer)], the GI50 in the assay with HCT116 cells was found to be 3500 nM; in assay [1] it was 59 nM.

Regarding `CC(F)(F)CN1C(=O)c2[nH]nc(-c3cccc4[nH]c(=O)oc34)c2C1c1cnc(Oc2ccc(Cl)c(Cl)c2)s1` (stereo not shown) [Example 76, 7-{4-[2-(3,4-Dichlorophenoxy)-1,3-thiazol-5-yl]-5-(2,2-difluoropropyl)-6-oxo-1,4,5,6-tetrahydropyrrolo[3,4-c]pyrazol-3-yl]-1,3-benzoxazol-2(3H)-one], the concentration for 50% growth inhibition (GI50) with HCT116 cells was found to be 7800 nM; in assay [1], 200 nM.

On to `CC(F)(F)CN1C(=O)c2[nH]nc(-c3cccc4[nH]c(=O)oc34)c2C1c1ccc(Oc2ccc3c(c2)OC(F)(F)C(F)(F)O3)cc1` (single isomer, unassigned) [Example 39, 7-[5-(2,2-Difluoropropyl)-6-oxo-4-{4-[(2,2,3,3-tetrafluoro-2,3-dihydro-1,4-benzodioxin-6-yl)oxy]phenyl}-1,4,5,6-tetrahydropyrrolo[3,4-c]pyrazol-3-yl]-1,3-benzoxazol-2(3H)-one (enantiomer)], for which the 50% growth inhibitory concentration (GI50) worked out at 8300 nM in the assay on HCT116 cells and 14 nM in assay [1].
